Consider one compound from patent US11304949B2, “Treatment of hidradenitis suppurativa using JAK inhibitors” (Incyte Corporation, priority 2018, dated 2022).

The assay deals with human JAK1 (a.a. 837-1142) (Homo sapiens, UniProt P23458). Kind of assay: In vitro JAK kinase assay (HTRF), JAK1. Format: biochemical. The note with it: 1 mM ATP.

On to `CN(C)Cc1cc(F)cc(OC2CCN(CC(CC#N)n3cc(-c4ncnc5[nH]ccc45)cn3)CC2)c1` (single isomer, unassigned) [Compound 14, 4-(4-{3-[(dimethylamino)methyl]-5-fluorophenoxy}piperidin-1-yl)-3-[4-(7H-pyrrolo[2,3-d]pyrimidin-4-yl)-1H-pyrazol-1-yl]butanenitrile], for which the IC50 is < 10 nM.
